The target in this experiment is C-C chemokine receptor type 5 (Homo sapiens, UniProt P51681). Put plainly: Antagonistic activity against C-C chemokine receptor type 5. In kind it is functional.

The chains behind the UniProt entries cited, without tags or fusion partners.
UniProt P51681, whole entry: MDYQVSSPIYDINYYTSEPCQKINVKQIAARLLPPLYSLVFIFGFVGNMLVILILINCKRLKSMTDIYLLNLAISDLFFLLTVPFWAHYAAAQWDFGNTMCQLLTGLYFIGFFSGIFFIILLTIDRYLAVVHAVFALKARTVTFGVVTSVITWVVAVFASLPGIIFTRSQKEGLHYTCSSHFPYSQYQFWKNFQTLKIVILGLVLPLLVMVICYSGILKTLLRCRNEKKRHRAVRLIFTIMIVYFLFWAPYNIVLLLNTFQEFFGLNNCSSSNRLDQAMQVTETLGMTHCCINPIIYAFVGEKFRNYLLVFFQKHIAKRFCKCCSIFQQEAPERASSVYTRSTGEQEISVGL

`Cc1ncnc(C)c1C(=O)N1CCC(C)(N2CCN([C@@H](C)c3ccc(C(F)(F)F)cc3)[C@@H](C)C2)CC1` returned a Ki of 2.8 nM.

By Ki is commonly meant the equilibrium dissociation constant of an inhibitor or competing ligand from its target. A higher Ki goes with a looser hold on the target.

These data come from ChEMBL document CHEMBL1148299 (J Med Chem, 2004).
